According to patent publication US8309129B2, “Nanoparticles comprising a drug, ethylcellulose, and a bile salt” (Bend Research, Inc., priority 2007, dated 2012):

Assay: Nanoparticle dissolution test of celecoxib in MFDS
Assay type: physicochemical
Settings: PBS with 0.5 wt % NaTC/POPC (MFDS), ambient temperature, 100,000-dalton cutoff filtrate

Celecoxib Concentration at 1 minute: 0.7 µg/mL
SMILES: Cc1ccc(-c2cc(C(F)(F)F)nn2-c2ccc(S(N)(=O)=O)cc2)cc1 [Crystalline celecoxib, celecoxib]
